Consider 88 molecules from PubChem BioAssay AID2796 (The Scripps Research Institute Molecular Screening Center, 2010).

Protein sequences, listed by entry. Tags and fused reporters are not part of them.
UniProt P35869, whole entry: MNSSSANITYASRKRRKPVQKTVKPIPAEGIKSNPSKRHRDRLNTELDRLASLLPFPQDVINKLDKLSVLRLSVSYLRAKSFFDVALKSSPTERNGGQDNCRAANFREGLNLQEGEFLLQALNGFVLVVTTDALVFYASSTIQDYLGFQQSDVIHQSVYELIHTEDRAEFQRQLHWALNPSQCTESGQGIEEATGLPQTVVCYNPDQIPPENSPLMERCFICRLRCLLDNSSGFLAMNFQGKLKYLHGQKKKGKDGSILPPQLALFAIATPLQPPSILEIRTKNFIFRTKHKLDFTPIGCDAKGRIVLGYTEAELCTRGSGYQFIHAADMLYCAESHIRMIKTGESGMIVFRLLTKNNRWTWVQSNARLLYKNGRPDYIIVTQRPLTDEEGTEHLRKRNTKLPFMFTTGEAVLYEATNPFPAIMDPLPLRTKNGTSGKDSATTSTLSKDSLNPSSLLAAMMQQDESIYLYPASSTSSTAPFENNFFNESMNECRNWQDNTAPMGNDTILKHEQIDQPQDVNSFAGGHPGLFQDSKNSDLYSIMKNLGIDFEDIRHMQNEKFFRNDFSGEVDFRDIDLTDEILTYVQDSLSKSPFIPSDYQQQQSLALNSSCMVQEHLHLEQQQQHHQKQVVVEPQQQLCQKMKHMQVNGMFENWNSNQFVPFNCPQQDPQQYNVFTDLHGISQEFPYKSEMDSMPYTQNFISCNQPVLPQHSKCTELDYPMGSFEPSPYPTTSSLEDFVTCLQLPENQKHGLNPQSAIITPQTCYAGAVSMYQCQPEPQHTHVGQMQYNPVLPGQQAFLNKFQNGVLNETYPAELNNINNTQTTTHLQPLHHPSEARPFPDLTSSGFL

The structures appear in SMILES notation. The entries are a selection whose mix differs from that of the whole data set. Some salts or complexes appear as unconnected parts, following the source record. Active and inactive are the calls of the source. No stated cut-off is given here; in the data, active means activation above about 47%; inactive means the rest.

In the assay the target is Aryl hydrocarbon receptor (Homo sapiens) (UniProt P35869). Put plainly: AHR activators, primary screen, cell-based, luminescence, luciferase reporter, human (AID 2796).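 Further: 0% = vehicle wells and 100% = reference agonist.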 The note with it: AHR-responsive luciferase reporter cells, at 5 µM, active compounds read high.
`CP(=O)(Nc1ccccc1Br)Oc1ccccc1` (stereo not drawn): the activation is inactive: -0.02%.

In the case of `COc1ccccc1OP(C)(=O)Nc1ccccc1` (stereo not drawn), the activation was inactive: 1.57%.

In the case of `CP(=S)(Nn1cnnc1)Oc1ccccc1` (stereo not drawn), the activation is inactive: 2.81%.

As for `CCc1ccc(OP(C)(=O)N2CCN(c3ccc([N+](=O)[O-])cc3)CC2)cc1` (stereo not drawn), the activation is inactive: 0.97%.

With `CP(=O)(NC(=O)Nc1ccccc1)Oc1ccccc1` (stereo not drawn), the activation is inactive: 5.75%.

Turning to `Cc1cc(C)cc(OP(C)(=O)Nc2ccc(SC(F)(F)F)cc2)c1` (stereo not drawn), the activation was inactive: -0.31%.

As to `CP(=O)(Nc1ccc(SC(F)(F)F)cc1)Oc1ccc(Cl)cc1` (stereo not drawn), the activation was inactive: -1.6%.

Take `Cc1cccc(C)c1OP(C)(=O)Nc1ccc(SC(F)(F)F)cc1` (stereo not drawn): the activation is inactive: 1.96%.

`CP(=O)(Oc1ccccc1)OC(c1ccccc1)C(F)(F)F` (stereo not drawn): the activation is inactive: 7.52%.

Turning to `CP(=O)(Nc1ccccn1)Oc1ccc(Cl)cc1` (stereo not drawn), the activation is inactive: 0.51%.

`O=[N+]([O-])c1cc([N+](=O)[O-])c(O)c([N+](=O)[O-])c1.c1ccc(Oc2ccncc2)cc1`: the activation was inactive: -2%.

For the molecule `CCOC(=O)c1ccc(NP(C)(=O)Oc2ccc(OC)cc2)cc1` (stereo not drawn), the activation was inactive: 4.5%.

`CCOP(C)(=S)SCC(=O)NC(C)C(=O)O` (stereo not drawn): the activation is inactive: 3.12%.

`CCN(CC)CCCOC(=O)C(O)(c1ccccc1)c1ccccc1`: the activation is inactive: -0.91%.

Take `O=[N+]([O-])c1ccc2c(c1)C=Nc1ccccc1O2`: the activation is inactive: -1.9%.

For `CC(C)(C)c1ccc(OP(C)(=O)Nc2ccc(SC(F)(F)F)cc2)cc1` (stereo not drawn), the activation was inactive: 0.25%.

As for `Cc1cccc(C)c1OP(C)(N)=O` (stereo not drawn), the activation is inactive: 0.16%.

Consider `O=[N+]([O-])c1cc([N+](=O)[O-])c(Nc2cccnc2)c([N+](=O)[O-])c1`, for which the activation was inactive: 26.9%.

Take `Cc1cc(C)cc(OP(C)(N)=O)c1` (stereo not drawn): the activation was inactive: -1.15%.

Take `COc1ccccc1OP(C)(=O)Nc1cc(Cl)ccc1C` (stereo not drawn): the activation was inactive: 2.78%.

In the case of `COc1ccc(OP(C)(=O)Nc2cccc(F)c2)cc1` (stereo not drawn), the activation was inactive: 1.15%.

In the case of `COc1ccccc1OP(C)(=O)Nc1ccc(C)cc1` (stereo not drawn), the activation was inactive: 5.6%.

`Cc1ccc(NP(C)(=O)Oc2ccccc2)c(C)c1` (stereo not drawn): the activation is inactive: 1.89%.

For the molecule `CCOC(=O)c1ccc(NP(C)(=O)Oc2ccccc2)cc1` (stereo not drawn), the activation was inactive: 15.2%.

Turning to `O=C(O)c1cccc(Nc2c([N+](=O)[O-])cc([N+](=O)[O-])cc2[N+](=O)[O-])c1`, the activation is inactive: -0.81%.

As to `CC1=NCCc2c1[nH]c1ccccc21.O=[N+]([O-])c1cc([N+](=O)[O-])c(O)c([N+](=O)[O-])c1`, the activation is inactive: 8.44%.

Turning to `CCOC(=O)c1ccc(NP(C)(=O)Oc2cc(C)cc(C)c2)cc1` (stereo not drawn), the activation is inactive: 0.92%.

As to `Cc1cc(C)cc(OP(C)(=O)Nc2ccc(C)cc2C)c1` (stereo not drawn), the activation was inactive: 4.34%.

On to `COc1ccccc1OP(C)(=O)Nc1cccc(Br)c1` (stereo not drawn), for which the activation was inactive: -1.92%.

Regarding `Cc1ccc(C)c(NP(C)(=O)Oc2ccccc2)c1` (stereo not drawn), the activation is inactive: -0.47%.

On to `CP(=O)(Nc1cccc(Br)c1)Oc1ccccc1` (stereo not drawn), for which the activation is inactive: 0.89%.

`Cc1cc(C)cc(OP(C)(=O)Nc2ccccn2)c1` (stereo not drawn): the activation is inactive: -1.19%.

For the molecule `O=[N+]([O-])c1cc([N+](=O)[O-])c(-n2nnc3ccccc32)c([N+](=O)[O-])c1`, the activation is inactive: -0.92%.

In the case of `Cc1nc2ccc3ccccc3c2s1.O=[N+]([O-])c1cc([N+](=O)[O-])c(O)c([N+](=O)[O-])c1`, the activation is inactive: 0.87%.

Consider `O=[N+]([O-])c1cc([N+](=O)[O-])c(-c2cnn(-c3ccccc3)c2)c([N+](=O)[O-])c1`, for which the activation was inactive: 1.6%.

In the case of `O=[N+]([O-])c1cc([N+](=O)[O-])c(Nc2nnnn2CCO)c([N+](=O)[O-])c1`, the activation is inactive: 1.3%.

In the case of `CC1=C2N=C(C=C3N=C(C(C)=C4[N-][C@@](C)([C@@H]5N=C1[C@](C)(CCC(=O)NC[C@@H](C)OP(=O)([O-])O[C@H]1[C@@H](O)[C@@H](n6cnc7cc(C)c(C)cc76)O[C@@H]1CO)[C@H]5CC(N)=O)[C@@](C)(CC(N)=O)[C@@H]4CCC(N)=O)[C@@](C)(CC(N)=O)[C@@H]3CCC(N)=O)C(C)(C)[C@@H]2CCC(N)=O.[C-]#N.[Co+3]`, the activation is inactive: 5.37%.

Regarding `CCOC(=O)C(CC)C1=NC(C)(C)Cc2ccccc21.O=[N+]([O-])c1cc([N+](=O)[O-])c(O)c([N+](=O)[O-])c1` (stereo not drawn), the activation is inactive: 1.37%.

In the case of `CP(=O)(Nc1ccc(SC(F)(F)F)cc1)Oc1ccccc1` (stereo not drawn), the activation was inactive: -0.53%.

With `CCCOc1ccc(NP(C)(=O)Oc2ccc(Cl)cc2)cc1` (stereo not drawn), the activation was inactive: 7.64%.

With `CN1CCCCC1COC(=O)C1(O)c2ccccc2CCc2ccccc21` (stereo not drawn), the activation was inactive: 0.29%.

On to `COc1ccccc1OP(C)(=O)Nc1c(C)cccc1C` (stereo not drawn), for which the activation was inactive: 1.42%.

As to `CN(C)CCOC(=O)C(O)(c1ccccc1)C1CCCCC1` (stereo not drawn), the activation was inactive: -2.71%.

Take `COc1ccc(NP(C)(=O)Oc2ccccc2OC)cc1` (stereo not drawn): the activation was inactive: 1.35%.

Take `COc1ccc(OP(C)(=O)Nc2cccc(Br)c2)cc1` (stereo not drawn): the activation is inactive: -0.31%.

Consider `O=[N+]([O-])c1cc([N+](=O)[O-])c(NCC2CCS(=O)(=O)C2)c([N+](=O)[O-])c1` (stereo not drawn), for which the activation was inactive: -3.27%.

For `CCOP(C)(=S)SCC(=O)NC(C)(CC)C(=O)O` (stereo not drawn), the activation was inactive: -4.21%.

On to `CP(=O)(Nc1ccc(SC(F)(F)F)cc1)Oc1ccc(F)cc1` (stereo not drawn), for which the activation was inactive: 2.22%.

`Cc1ccccc1NP(C)(=O)Nc1ccccc1C`: the activation was inactive: 3.5%.

On to `CP(=O)(Nc1ccc2c(c1)OCCO2)Oc1ccccc1` (stereo not drawn), for which the activation was inactive: 12.3%.

For the molecule `CP(=O)(Nc1ccccc1F)Oc1ccccc1` (stereo not drawn), the activation is inactive: 1.13%.

As for `CC(C)c1ccc(OP(C)(=O)Nc2ccc(SC(F)(F)F)cc2)cc1` (stereo not drawn), the activation is inactive: 2.51%.

For the molecule `COc1ccc2c(c1O)-c1c(O)c(OC)cc3c1[C@H](C2)[N+](C)(C)CC3.O=[N+]([O-])c1cc([N+](=O)[O-])c([O-])c([N+](=O)[O-])c1[O-]`, the activation is inactive: 0.24%.

In the case of `O=C(OC1CN2CCC1CC2)c1ccc([N+](=O)[O-])cc1` (stereo not drawn), the activation is inactive: 1.53%.

For `O=C(OCCN1CCN(CCOCc2ccccc2)CC1)C(O)(c1ccccc1)c1ccccc1`, the activation was inactive: -5.11%.

With `CCOC(=O)c1ccc(NP(C)(=O)Oc2ccc(F)cc2)cc1` (stereo not drawn), the activation is inactive: -1.28%.

Regarding `COc1ccc(OP(C)(=O)Nc2ccc(SC(F)(F)F)cc2)cc1` (stereo not drawn), the activation was inactive: 7.07%.

Regarding `CP(=O)(Nc1ccccc1)Oc1ccc(F)cc1` (stereo not drawn), the activation is inactive: -1.23%.

Turning to `CCCCCOc1ccc(NP(C)(=O)Oc2ccc(Cl)cc2Cl)cc1` (stereo not drawn), the activation is inactive: 0.53%.

Consider `O=[N+]([O-])c1cc([N+](=O)[O-])c(OC2CCCCC2O)c([N+](=O)[O-])c1` (stereo not drawn), for which the activation was inactive: 1.04%.

Regarding `CCN(CC)CCCOC(=O)C(O)(c1ccccc1)C1CCCCC1` (stereo not drawn), the activation is inactive: -0.25%.

Take `COc1ccccc1OP(C)(=O)Nc1ccc(C)c(C)c1` (stereo not drawn): the activation was inactive: 12.7%.

Take `COc1ccc(OP(C)(=O)Nc2ccccc2Br)cc1` (stereo not drawn): the activation is inactive: 0.34%.

For the molecule `Cc1cc(C)cc(OP(C)(=O)Nc2cccc(C(F)(F)F)c2)c1` (stereo not drawn), the activation was inactive: 6.13%.

Consider `CP(=O)(OCCOc1ccccc1)OCCOc1ccccc1`, for which the activation was inactive: -2.45%.

Take `CP(=O)(Nc1ccc(Cl)cc1Cl)Oc1ccccc1` (stereo not drawn): the activation is inactive: 1.74%.

Turning to `Cc1nc2ccc3ccccc3c2o1.O=[N+]([O-])c1cc([N+](=O)[O-])c(O)c([N+](=O)[O-])c1`, the activation was inactive: 11.2%.

Regarding `COc1ccc(OP(C)(=O)Nc2ccccn2)cc1` (stereo not drawn), the activation was inactive: 0.54%.

`CN(C)CCOC(=O)C(O)(c1ccccc1)C1CCCC1` (stereo not drawn): the activation is inactive: -0.96%.

For the molecule `COc1ccccc1OP(C)(=O)Nc1ccc(Br)cc1` (stereo not drawn), the activation is inactive: 7.71%.

As for `CP(=O)(Nc1ccccn1)Oc1ccccc1` (stereo not drawn), the activation was inactive: -0.5%.

For `COc1ccccc1OP(C)(=O)Nc1ccc(C)cc1C` (stereo not drawn), the activation is inactive: 16.7%.

With `CCc1ccc(OP(C)(=O)O)cc1`, the activation is inactive: -2.56%.

With `O=[N+]([O-])c1cc([N+](=O)[O-])c(Nc2ccccn2)c([N+](=O)[O-])c1`, the activation was inactive: 1.92%.

In the case of `Cc1c(NP(C)(=O)Oc2ccc(C(C)C)cc2)c(=O)n(-c2ccccc2)n1C` (stereo not drawn), the activation was inactive: -1.08%.

Take `COc1ccccc1OP(C)(=O)Nc1c(C)n(C)n(-c2ccccc2)c1=O` (stereo not drawn): the activation is inactive: 1.64%.

Consider `O=C(OCCCN1CCCC1)C(O)(c1ccccc1)C1CCCCC1` (stereo not drawn), for which the activation was inactive: -1.55%.

For the molecule `CP(=O)(Oc1ccccc1)N1CCOC1=O` (stereo not drawn), the activation was inactive: 1.05%.

Take `CCc1ccc(OP(C)(=O)Nc2cccnc2)cc1` (stereo not drawn): the activation was inactive: 1.78%.

Regarding `CCN(CC)CC(O)COC(=O)C(O)(c1ccccc1)C1CCCCC1` (stereo not drawn), the activation was inactive: 3.18%.

For `COc1ccc(OP(C)(=O)Nc2ccc(Br)cc2)cc1` (stereo not drawn), the activation was inactive: 6.35%.

Turning to `CN(C)C(=O)c1c([N+](=O)[O-])cc([N+](=O)[O-])cc1[N+](=O)[O-]`, the activation was inactive: 1.17%.

As for `CC(C)(C)c1ccc(OP(C)(=O)O)cc1`, the activation is inactive: 2.94%.

For `COc1ccccc1OP(C)(=O)Nc1ccccc1Br` (stereo not drawn), the activation is inactive: 3.23%.

As to `CP(=O)(Nc1ccc(Cl)cc1)Oc1ccc(F)cc1` (stereo not drawn), the activation was inactive: -0.13%.

On to `CCOC(=O)c1ccc(NP(C)(=O)Oc2ccc(Cl)cc2)cc1` (stereo not drawn), for which the activation was inactive: 0.96%.

`CP(=O)(OC12CC3CC(CC(C3)C1)C2)OC12CC3CC(CC(C3)C1)C2`: the activation was inactive: -0.36%.

`Nc1ccc2c(ccc3cccnc32)n1.O=[N+]([O-])c1cc([N+](=O)[O-])c(O)c([N+](=O)[O-])c1`: the activation is inactive: 10.6%.
